The values below come from article PMC8773746.

The target of the experiment is Human erythropoietin (Epoetin β) (human) (UniProt P01588). Kind of experiment: SPR; EPO immobilised by amine coupling on a ProteOn GLH chip (up to 3 000 RU); S100 or CaM as analyte (0.25–4 μM); 25 °C; 10 mM HEPES, 150 mM NaCl, 0.05% TWEEN 20, pH 7.4, 1 mM CaCl2; heterogeneous ligand model, values averaged over analyte concentrations (n = 5).

“Human S100A6 protein (from UniProt P06703 1-90) (natural protein)” registered a Kd1 (heterogeneous ligand model, ligand population L1) of 150 nM; a Kd2 (heterogeneous ligand model, ligand population L2) of 650 nM; a ka1 (heterogeneous ligand model, ligand population L1) of 3000 M⁻¹ s⁻¹; a ka2 (heterogeneous ligand model, ligand population L2) of 25000 M⁻¹ s⁻¹. The substance further registered a kd1 (heterogeneous ligand model, ligand population L1) of 0.00045 s⁻¹ and a kd2 (heterogeneous ligand model, ligand population L2) of 0.016 s⁻¹.
